Calls of active or inactive are those of the source.
Columns and labels:
Conditions in all cases: dose 0.15-3000 nM
[1] = target: T1, Tyrosine-protein kinase BTK (Homo sapiens, UniProt Q06187); test: Inhibition of BCR signalling in human MINO cells assessed as downregulation of phosphorylated PLCgamma2 measured at 0.15 to 3000 nM after 48 hrs stimulated with goat F(ab') 2 anti-human IgM for 10 mins before harvesting measured by Western blot analysis
[2] = target: T1, Tyrosine-protein kinase BTK; test: Inhibition of BCR signalling in human TMD8 cells assessed as downregulation of total protein level PLCgamma2 of measured at 0.15 to 3000 nM after 48 hrs stimulated with goat F(ab') 2 anti-human IgM for 10 mins before harvesting measured by Western blot analysis
[3] = target: T1, Tyrosine-protein kinase BTK; test: Inhibition of BCR signalling in human TMD8 cells assessed as downregulation of total protein level AKT of measured at 0.15 to 3000 nM after 48 hrs stimulated with goat F(ab') 2 anti-human IgM for 10 mins before harvesting measured by Western blot analysis
[4] = target: T1, Tyrosine-protein kinase BTK; test: Inhibition of BCR signalling in human TMD8 cells assessed as downregulation of phosphorylated AKT measured at 0.15 to 3000 nM after 48 hrs stimulated with goat F(ab') 2 anti-human IgM for 10 mins before harvesting measured by Western blot analysis
[5] = target: T1, Tyrosine-protein kinase BTK; test: Inhibition of BCR signalling in human MINO cells assessed as activation of ERK of measured at 0.15 to 3000 nM after 48 hrs stimulated with goat F(ab') 2 anti-human IgM for 10 mins before harvesting measured by Western blot analysis
[6] = target: T1, Tyrosine-protein kinase BTK; test: Inhibition of BCR signalling in human TMD8 cells assessed as downregulation of total protein level NF-KappaB of measured at 0.15 to 3000 nM after 48 hrs stimulated with goat F(ab') 2 anti-human IgM for 10 mins before harvesting measured by Western blot analysis
[7] = target: T1, Tyrosine-protein kinase BTK; test: Inhibition of BCR signalling in human MINO cells assessed as downregulation of phosphorylated BTK measured at 0.15 to 3000 nM after 48 hrs stimulated with goat F(ab') 2 anti-human IgM for 10 mins before harvesting measured by Western blot analysis
[8] = target: T1, Tyrosine-protein kinase BTK; test: Inhibition of BCR signalling in human MINO cells assessed as downregulation of total protein level AKT of measured at 0.15 to 3000 nM after 48 hrs stimulated with goat F(ab') 2 anti-human IgM for 10 mins before harvesting measured by Western blot analysis
[9] = target: T1, Tyrosine-protein kinase BTK; test: Inhibition of BCR signalling in human MINO cells assessed as downregulation of total protein level PLCgamma2 of measured at 0.15 to 3000 nM after 48 hrs stimulated with goat F(ab') 2 anti-human IgM for 10 mins before harvesting measured by Western blot analysis
[10] = target: T1, Tyrosine-protein kinase BTK; test: Inhibition of BCR signalling in human MINO cells assessed as downregulation of total protein level NF-KappaB of measured at 0.15 to 3000 nM after 48 hrs stimulated with goat F(ab') 2 anti-human IgM for 10 mins before harvesting measured by Western blot analysis
[11] = target: T1, Tyrosine-protein kinase BTK; test: Inhibition of BCR signalling in human TMD8 cells assessed as downregulation of phosphorylated PLCgamma2 measured at 0.15 to 3000 nM after 48 hrs stimulated with goat F(ab') 2 anti-human IgM for 10 mins before harvesting measured by Western blot analysis
[12] = target: T1, Tyrosine-protein kinase BTK; test: Inhibition of BCR signalling in human MINO cells assessed as downregulation of phosphorylated AKT measured at 0.15 to 3000 nM after 48 hrs stimulated with goat F(ab') 2 anti-human IgM for 10 mins before harvesting measured by Western blot analysis
[13] = target: T1, Tyrosine-protein kinase BTK; test: Inhibition of BCR signalling in human MINO cells assessed as downregulation of phosphorylated NF-kappaB measured at 0.15 to 3000 nM after 48 hrs stimulated with goat F(ab') 2 anti-human IgM for 10 mins before harvesting measured by Western blot analysis
[14] = target: T1, Tyrosine-protein kinase BTK; test: Inhibition of BCR signalling in human TMD8 cells assessed as activation of ERK of measured at 0.15 to 3000 nM after 48 hrs stimulated with goat F(ab') 2 anti-human IgM for 10 mins before harvesting measured by Western blot analysis
[15] = target: T1, Tyrosine-protein kinase BTK; test: Inhibition of BCR signalling in human TMD8 cells assessed as downregulation of phosphorylated BTK measured at 0.15 to 3000 nM after 48 hrs stimulated with goat F(ab') 2 anti-human IgM for 10 mins before harvesting measured by Western blot analysis
[16] = target: T1, Tyrosine-protein kinase BTK; test: Inhibition of BCR signalling in human TMD8 cells assessed as downregulation of phosphorylated NF-kappaB measured at 0.15 to 3000 nM after 48 hrs stimulated with goat F(ab') 2 anti-human IgM for 10 mins before harvesting measured by Western blot analysis

Measured: inhibition

C[C@H]1CN(C(=O)CNc2cccc3c2C(=O)N(C2CCC(=O)NC2=O)C3=O)CCN1c1ccc(Nc2cc(-c3ccnc(N4CCn5c(cc6c5CC(C)(C)C6)C4=O)c3CO)cn(C)c2=O)nc1 (stereo partly specified)
inactive: [5]
active: [1] | [2] | [3] | [4] | [6] | [7] | [8] | [9] | [10] | [11] | [12] | [13] | [14] | [15] | [16]
